Experimental data reported in ChEMBL document CHEMBL2176996, “Synthesis and structure-affinity relationships of selective high-affinity 5-HT(4) receptor antagonists: application to the design of new potential single photon emission computed tomography tracers” (J Med Chem, 2012).
pKi: −log10 of the molar value.

Protein sequences, listed by entry. Tags and fused reporters are not part of them. Lines headed by an entry give the natural chain unless they say otherwise; changes in a name come on top.
UniProt O70528: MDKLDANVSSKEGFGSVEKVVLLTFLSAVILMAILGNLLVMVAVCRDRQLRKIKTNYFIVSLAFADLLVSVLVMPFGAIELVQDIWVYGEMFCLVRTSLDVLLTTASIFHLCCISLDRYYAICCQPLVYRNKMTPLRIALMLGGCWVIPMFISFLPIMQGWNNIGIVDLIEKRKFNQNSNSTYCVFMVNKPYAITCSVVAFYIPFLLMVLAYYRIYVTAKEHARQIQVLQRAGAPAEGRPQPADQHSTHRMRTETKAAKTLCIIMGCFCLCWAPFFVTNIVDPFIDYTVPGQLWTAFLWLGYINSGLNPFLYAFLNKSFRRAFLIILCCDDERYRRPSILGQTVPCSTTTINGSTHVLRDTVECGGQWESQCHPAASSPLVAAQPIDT
UniProt P28566: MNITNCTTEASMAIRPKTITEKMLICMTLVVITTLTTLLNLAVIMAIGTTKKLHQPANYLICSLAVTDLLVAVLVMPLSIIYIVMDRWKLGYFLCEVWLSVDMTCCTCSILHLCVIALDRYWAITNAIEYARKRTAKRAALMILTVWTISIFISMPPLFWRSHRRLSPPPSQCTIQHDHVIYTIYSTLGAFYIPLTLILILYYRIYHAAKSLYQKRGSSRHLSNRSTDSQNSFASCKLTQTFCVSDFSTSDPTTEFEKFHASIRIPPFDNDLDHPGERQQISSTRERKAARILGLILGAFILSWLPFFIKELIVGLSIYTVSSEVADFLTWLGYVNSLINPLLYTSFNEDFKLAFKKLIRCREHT
UniProt P28223, whole entry: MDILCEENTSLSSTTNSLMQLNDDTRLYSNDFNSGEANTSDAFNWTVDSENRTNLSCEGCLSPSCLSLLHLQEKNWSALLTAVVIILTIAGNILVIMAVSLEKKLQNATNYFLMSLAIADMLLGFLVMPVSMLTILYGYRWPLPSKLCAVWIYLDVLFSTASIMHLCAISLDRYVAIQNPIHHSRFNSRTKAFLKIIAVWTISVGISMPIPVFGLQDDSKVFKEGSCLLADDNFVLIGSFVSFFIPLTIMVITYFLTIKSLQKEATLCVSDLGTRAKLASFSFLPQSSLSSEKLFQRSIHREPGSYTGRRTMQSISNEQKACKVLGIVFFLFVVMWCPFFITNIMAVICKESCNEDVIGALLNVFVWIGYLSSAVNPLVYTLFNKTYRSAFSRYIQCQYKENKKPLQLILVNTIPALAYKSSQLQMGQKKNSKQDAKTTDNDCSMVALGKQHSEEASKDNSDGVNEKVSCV
UniProt P41595, whole entry: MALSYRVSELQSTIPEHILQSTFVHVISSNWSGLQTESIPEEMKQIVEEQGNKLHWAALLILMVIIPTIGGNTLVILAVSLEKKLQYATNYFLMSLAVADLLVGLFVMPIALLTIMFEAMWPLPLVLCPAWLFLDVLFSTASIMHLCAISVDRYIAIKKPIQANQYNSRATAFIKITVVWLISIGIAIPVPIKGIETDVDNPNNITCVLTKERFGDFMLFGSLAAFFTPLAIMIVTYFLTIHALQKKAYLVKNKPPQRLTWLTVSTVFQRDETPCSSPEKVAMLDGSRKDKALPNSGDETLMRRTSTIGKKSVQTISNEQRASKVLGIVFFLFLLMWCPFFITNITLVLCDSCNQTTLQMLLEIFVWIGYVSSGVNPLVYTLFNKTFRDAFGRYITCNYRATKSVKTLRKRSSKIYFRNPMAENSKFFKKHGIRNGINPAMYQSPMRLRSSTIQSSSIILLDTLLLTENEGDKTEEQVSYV

Key:
[1] = biological target: 5-hydroxytryptamine receptor 4 (Cavia porcellus) (UniProt O70528); experiment: Displacement of [3H]GR113808 from 5HT4R in guinea pig striatal membranes at 1 uM; type: cell membranes; details: Striatum, Membrane
Procedure, shortened: (§1)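 Native 5-HT4R in male guinea pig striatal membranes (HEPES 50 mM pH 7.4); 600 µg membrane incubated in duplicate with [3H]GR 113808 at 0.1 nM final, 37 °C, 30 min; filtration on PEI-soaked GF/B filters, cold buffer washes.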

[2] = biological target: 5-hydroxytryptamine receptor 4 (Cavia porcellus) (UniProt O70528); experiment: Displacement of [3H]GR113808 from 5HT4R in guinea pig striatal membranes at 10 nM; type: cell membranes; details: Striatum, Membrane; procedure, shortened: as §1
[3] = biological target: 5-hydroxytryptamine receptor 1E (Homo sapiens, UniProt P28566); experiment: Binding affinity to human 5HT1E by Cerep protocol based assay
[4] = biological target: 5-hydroxytryptamine receptor 2A (Homo sapiens, UniProt P28223); experiment: Binding affinity to human 5HT2A by Cerep protocol based assay
[5] = biological target: 5-hydroxytryptamine receptor 2B (Homo sapiens, UniProt P41595); experiment: Binding affinity to human 5HT2B by Cerep protocol based assay

Work on `CCCN1CCC(COc2nc3cc(C)ccc3c3ccccc23)CC1` yielded an inhibition [1] of 65% and an inhibition [2] of 30%.
`CCCN1CCC(COc2nc3ccc(C)cc3c3ccccc23)CC1` gave an inhibition [1] of 88% and an inhibition [2] of 7%.
With `CCCN1CCC(COc2nc3c(F)cccc3c3ccccc23)CC1` the pKi [3] was < 5.00 and the pKi [4] was < 5.00.
In the case of `CCCN1CCC(COc2nc3ccccc3c3cccc(F)c23)CC1`, the inhibition [1] was 100% and the inhibition [2] was 0%.
`CCCN1CCC(COc2nc3ccccc3c3ccccc23)CC1` was tested, and the inhibition [1] was 100% and the inhibition [2] was 11%.
In the case of `CCCN1CCC(COc2nc3c(I)cccc3c3ncccc23)CC1`, the pKi [5] was < 5.00.
`CCCN1CCC(COc2nc3ccccc3c3cc(F)ccc23)CC1` gave an inhibition [1] of 84% and an inhibition [2] of 0%.
Work on `CCCN1CCC(COc2nc3ccc(OC)cc3c3ccccc23)CC1` yielded an inhibition [1] of 83% and an inhibition [2] of 9%.
For `CCCN1CCC(COc2nc3cc(F)ccc3c3ccccc23)CC1`, the inhibition [1] was 100% and the inhibition [2] was 14%.
In the case of `CCCN1CCC(COc2nc3c(Cl)cccc3c3ccccc23)CC1`, the pKi [3] was < 5.00.
